## Permeability data for macrocyclic peptides

Collected by the curators of CycPeptMPDB (Li et al. 2023) from Townsend et al. 2020, doi:10.26434/chemrxiv.13335941.v1.

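Lipid, pH, incubation time, direction and concentration are not recorded in the data file. Other peptides of the study may be missing here. Entries at the database's floor value (log10 P of -10) are not listed.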

PAMPA measures passive passage through an artificial lipid membrane.
Values are log10 P with P in cm/s, so -5 is more permeable than -7.

For CC(C)C[C@H]1C(=O)N[C@@H](Cc2ccccc2)C(=O)N2CCC[C@H]2C(=O)N[C@@H](Cc2ccccc2)CC(=O)N(Cc2ccccc2)CC(=O)N[C@@H](Cc2ccccc2)CC(=O)N2CCC[C@H]2C(=O)N1C the data give PAMPA -6.01 (log10 cm/s).
For CCCN1CC(=O)N(C)[C@@H](CC(C)C)C(=O)N[C@@H](Cc2ccccc2)CC(=O)N2CCC[C@H]2C(=O)N[C@H](CC(C)C)C(=O)N[C@@H](Cc2ccccc2)C(=O)N2CCC[C@@H]2C1=O the data give PAMPA -5.94 (log10 cm/s).
For CCCN1CC(=O)N[C@@H](CC(C)C)C(=O)N(Cc2ccccc2)CC(=O)N2CCC[C@H]2C(=O)N(Cc2ccccc2)CC(=O)N[C@@H](Cc2ccccc2)C(=O)N2CCC[C@@H]2C1=O the data give PAMPA -5.62 (log10 cm/s).
For CC(C)C[C@@H]1C(=O)N2CCC[C@H]2C(=O)N(C)[C@@H](CC(C)C)C(=O)N[C@@H](Cc2ccccc2)C(=O)N2CCC[C@@H]2C(=O)N[C@@H](C)C(=O)N[C@H](CC(C)C)C(=O)N1C the data give PAMPA -5.66 (log10 cm/s).
For CC(C)C[C@H]1NC(=O)[C@@H](C)NC(=O)[C@H](Cc2ccccc2)NC(=O)CN(Cc2ccccc2)C(=O)[C@H]2CCCN2C(=O)CN(Cc2ccccc2)C1=O the data give PAMPA -6.15 (log10 cm/s).
For CC(C)C[C@@H]1C(=O)N[C@H](CC(C)C)C(=O)N2CCC[C@H]2C(=O)N[C@H](CC(C)C)C(=O)N[C@@H](Cc2ccccc2)C(=O)N2CCC[C@H]2C(=O)N[C@@H](Cc2ccccc2)CC(=O)N1C the data give PAMPA -5.49 (log10 cm/s).
For CC(C)C[C@@H]1C(=O)N2CCC[C@H]2C(=O)N(C)[C@H](CC(C)C)C(=O)N[C@@H](Cc2ccccc2)C(=O)N2CCC[C@H]2C(=O)N(C)[C@@H](C)C(=O)N(C)[C@H](CC(C)C)C(=O)N1C the data give PAMPA -5.80 (log10 cm/s).
For CC(C)C[C@@H]1C(=O)N[C@@H](Cc2ccccc2)C(=O)N2CCC[C@@H]2C(=O)N(C)[C@@H](C)C(=O)N(C)[C@@H](CC(C)C)C(=O)N(C)[C@@H](CC(C)C)C(=O)N2CCC[C@@H]2C(=O)N1C the data give PAMPA -4.93 (log10 cm/s).
For CC(C)C[C@@H]1NC(=O)[C@@H](C)N(C)C(=O)[C@H](Cc2ccccc2)NC(=O)[C@H](CC(C)C)NC(=O)[C@H]2CCCN2C(=O)[C@@H](CC(C)C)NC1=O the data give PAMPA -6.39 (log10 cm/s).
For CC(C)C[C@@H]1C(=O)N(C)[C@@H](CC(C)C)C(=O)N2CCC[C@H]2C(=O)N(Cc2ccccc2)CC(=O)N[C@@H](Cc2ccccc2)C(=O)N[C@@H](C)C(=O)N1C the data give PAMPA -5.30 (log10 cm/s).
For CC(C)C[C@@H]1NC(=O)[C@@H]2CCCN2C(=O)CN(Cc2ccccc2)C(=O)[C@H](CC(C)C)N(C)C(=O)C[C@H](Cc2ccccc2)NC(=O)[C@H]2CCCN2C(=O)[C@H](Cc2ccccc2)NC1=O the data give PAMPA -5.61 (log10 cm/s).
For CCCN1CC(=O)N[C@H](CC(C)C)C(=O)N(C)[C@@H](CC(C)C)C(=O)N2CCC[C@@H]2C(=O)N(Cc2ccccc2)CC(=O)N[C@@H](Cc2ccccc2)C(=O)N2CCC[C@H]2C1=O the data give PAMPA -5.80 (log10 cm/s).

2 of these entries, quoted again:

| compound | PAMPA (log10 cm/s) |
|---|---|
| CC(C)C[C@@H]1C(=O)N[C@H](CC(C)C)C(=O)N2CCC[C@H]2C(=O)N[C@H](CC(C)C)C(=O)N[C@@H](Cc2ccccc2)C(=O)N2CCC[C@H]2C(=O)N[C@@H](Cc2ccccc2)CC(=O)N1C | -5.49 |
| CCCN1CC(=O)N[C@@H](CC(C)C)C(=O)N(Cc2ccccc2)CC(=O)N2CCC[C@H]2C(=O)N(Cc2ccccc2)CC(=O)N[C@@H](Cc2ccccc2)C(=O)N2CCC[C@@H]2C1=O | -5.62 |